Molecules are shown by their SMILES. The list shows a part of the results, in another mix than the full data. Active and inactive are the calls of the source.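 Rule for the calls: active = inhibition above about 30% together with a positive call from visual inspection of the well image (limit read from the data); inconclusive = inhibition above a set limit but visual check negative; inactive = inhibition not above a set limit, visual check negative.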

This assay can be described thus: inhibitors of IL-1B driven NFkB p65 nuclear import, primary screen, imaging, HUVEC, IL-1B stimulus, high-content imaging (AID 796).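 Note: nuclear over cytoplasmic p65 intensity ratio measured by imaging; 0% = IL-1B stimulated DMSO wells and 100% = unstimulated DMSO wells.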 As to conditions: HUVEC IL-1B NFkB p65 nuclear translocation imaging; at 2 µM; hits give high values.
What is called inhibition is the change of the read-out against control, counted positive when it falls. For `COc1ccc(NC2CCN(CCc3ccccc3)CC2)c(OC)c1`, the inhibition was inactive: 4.3%.
Regarding `O=C(NCC1(N2CCOCC2)CCCCC1)c1cc2ccccc2o1`, the inhibition was inactive: 6.7%.
On to `O=C(OC1CN2CCC1CC2)C1c2ccccc2Oc2ccccc21` (stereo not given), for which the inhibition is inactive: -23.4%.
With `CN1CCC(Nc2cccc(F)c2)CC1` the figure was inactive: -2.1%.
With `N#CC1(Nc2ccccc2)CCN(CCc2ccccc2)CC1` the figure was inactive: -23.6%.
With `O=C(NCC1(N2CCOCC2)CCCCC1)c1cc(=O)[nH]c2ccccc12` the figure was inactive: 4.3%.
With `c1ccc(CN2CCC(Nc3ccccc3)CC2)cc1`, the inhibition is inactive: 1.6%.
With `N/C(=N\O)c1c(N)no[n+]1[O-]` the figure was inactive: -29.9%.
On to `CCOc1ncccc1C(=O)NCC1(N2CCOCC2)CCCCC1`, for which the inhibition was inactive: 12.6%.
With `CCC(CO)(C(=O)OC1CN2CCC1CC2)c1ccccc1` (stereo not given) the figure was inactive: -1.4%.

Values taken from PubChem BioAssay AID796 (Columbia University Molecular Screening Center, 2007).
